Reference: the NIST ThermoML archive (doi:10.1021/je7005727)

Assays:
[1] = 101.33 kPa, Liquid; for speed of sound: Sing-around technique in a fixed-path interferometer
[2] = xn = mol fraction of the nth substance listed; conditions: 101 kPa, Liquid

CCCCOCCCC [dibutyl ether]
[1]
Conditions | mass density [kg/m3] | speed of sound [m/s]
293.15 K | 768.468 | 1181.8
298.15 K | 764.17 | 1161.2
303.15 K | 759.829 | 1142.1

CCCCOCCCC [dibutyl ether] + CCCCCCO
[2]
Conditions | mass density [kg/m3]
293.15 K, x2 = 0.1135 | 773.646
293.15 K, x2 = 0.1548 | 775.499
293.15 K, x2 = 0.1968 | 777.383
293.15 K, x2 = 0.2469 | 779.653
293.15 K, x2 = 0.2969 | 781.94
293.15 K, x2 = 0.347 | 784.277
293.15 K, x2 = 0.4017 | 786.883
293.15 K, x2 = 0.4491 | 789.183
293.15 K, x2 = 0.4976 | 791.595
293.15 K, x2 = 0.5487 | 794.145
293.15 K, x2 = 0.6 | 796.77
293.15 K, x2 = 0.6466 | 799.236
293.15 K, x2 = 0.6987 | 802
293.15 K, x2 = 0.7487 | 804.703
293.15 K, x2 = 0.8001 | 807.53
293.15 K, x2 = 0.8478 | 810.199
293.15 K, x2 = 0.8994 | 813.126
293.15 K, x2 = 0.95 | 816.052
298.15 K, x2 = 0.0541 | 766.673
298.15 K, x2 = 0.0997 | 768.754
298.15 K, x2 = 0.15 | 771.046
298.15 K, x2 = 0.1969 | 773.192
298.15 K, x2 = 0.2918 | 777.553
298.15 K, x2 = 0.3499 | 780.298
298.15 K, x2 = 0.3992 | 782.683
298.15 K, x2 = 0.4465 | 785.027
298.15 K, x2 = 0.4986 | 787.645
298.15 K, x2 = 0.5482 | 790.177
298.15 K, x2 = 0.5981 | 792.753
298.15 K, x2 = 0.6444 | 795.225
298.15 K, x2 = 0.6961 | 798.006
298.15 K, x2 = 0.7483 | 800.877
298.15 K, x2 = 0.799 | 803.718
298.15 K, x2 = 0.8524 | 806.753
298.15 K, x2 = 0.9 | 809.499
298.15 K, x2 = 0.9492 | 812.385
303.15 K, x2 = 0.0543 | 762.348
303.15 K, x2 = 0.099 | 764.409
303.15 K, x2 = 0.2007 | 769.103
303.15 K, x2 = 0.251 | 771.443
303.15 K, x2 = 0.3035 | 773.93
303.15 K, x2 = 0.3511 | 776.214
303.15 K, x2 = 0.3985 | 778.537
303.15 K, x2 = 0.4482 | 781.018
303.15 K, x2 = 0.4989 | 783.601
303.15 K, x2 = 0.5501 | 786.255
303.15 K, x2 = 0.5984 | 788.815
303.15 K, x2 = 0.6564 | 791.951
303.15 K, x2 = 0.6982 | 794.233
303.15 K, x2 = 0.7491 | 797.128
303.15 K, x2 = 0.7991 | 799.914
303.15 K, x2 = 0.849 | 802.8
303.15 K, x2 = 0.8961 | 805.567
303.15 K, x2 = 0.9505 | 808.803

CCCCOCCCC [dibutyl ether] + CCCCCO
[2]
Conditions | mass density [kg/m3]
293.15 K, x2 = 0.0993 | 772.147
293.15 K, x2 = 0.1509 | 774.059
293.15 K, x2 = 0.1989 | 775.841
293.15 K, x2 = 0.2498 | 777.791
293.15 K, x2 = 0.2983 | 779.683
293.15 K, x2 = 0.3468 | 781.629
293.15 K, x2 = 0.3961 | 783.67
293.15 K, x2 = 0.4504 | 785.99
293.15 K, x2 = 0.5527 | 790.629
293.15 K, x2 = 0.5997 | 792.852
293.15 K, x2 = 0.651 | 795.356
293.15 K, x2 = 0.6975 | 797.695
293.15 K, x2 = 0.7501 | 800.433
293.15 K, x2 = 0.7985 | 803.03
293.15 K, x2 = 0.8506 | 805.928
293.15 K, x2 = 0.9 | 808.751
298.15 K, x2 = 0.0486 | 766.003
298.15 K, x2 = 0.0986 | 767.846
298.15 K, x2 = 0.1521 | 769.844
298.15 K, x2 = 0.2022 | 771.744
298.15 K, x2 = 0.252 | 773.657
298.15 K, x2 = 0.2996 | 775.544
298.15 K, x2 = 0.3515 | 777.661
298.15 K, x2 = 0.3997 | 779.682
298.15 K, x2 = 0.4497 | 781.857
298.15 K, x2 = 0.4986 | 784.078
298.15 K, x2 = 0.4987 | 788.132
298.15 K, x2 = 0.5487 | 786.388
298.15 K, x2 = 0.5982 | 788.753
298.15 K, x2 = 0.6496 | 791.307
298.15 K, x2 = 0.6966 | 793.726
298.15 K, x2 = 0.7484 | 796.453
298.15 K, x2 = 0.799 | 799.243
298.15 K, x2 = 0.8506 | 802.115
298.15 K, x2 = 0.9002 | 805.013
298.15 K, x2 = 0.949 | 807.933
298.15 K, x2 = 0.9491 | 811.645
303.15 K, x2 = 0.0495 | 761.694
303.15 K, x2 = 0.1034 | 763.696
303.15 K, x2 = 0.1526 | 765.548
303.15 K, x2 = 0.2049 | 767.554
303.15 K, x2 = 0.2523 | 769.408
303.15 K, x2 = 0.2985 | 771.264
303.15 K, x2 = 0.3486 | 773.336
303.15 K, x2 = 0.399 | 775.471
303.15 K, x2 = 0.4497 | 777.705
303.15 K, x2 = 0.4978 | 779.891
303.15 K, x2 = 0.5493 | 782.353
303.15 K, x2 = 0.6003 | 784.842
303.15 K, x2 = 0.6499 | 787.293
303.15 K, x2 = 0.6988 | 789.821
303.15 K, x2 = 0.7492 | 792.539
303.15 K, x2 = 0.8001 | 795.362
303.15 K, x2 = 0.851 | 798.284
303.15 K, x2 = 0.8974 | 801.027
303.15 K, x2 = 0.9493 | 804.201

CCCCOCCCC [dibutyl ether] + CCCCO
[2]
Conditions | mass density [kg/m3]
293.15 K, x2 = 0.0547 | 770.042
293.15 K, x2 = 0.1046 | 771.461
293.15 K, x2 = 0.1516 | 772.81
293.15 K, x2 = 0.2005 | 774.247
293.15 K, x2 = 0.2514 | 775.785
293.15 K, x2 = 0.3016 | 777.369
293.15 K, x2 = 0.3518 | 779.033
293.15 K, x2 = 0.4012 | 780.726
293.15 K, x2 = 0.4519 | 782.556
293.15 K, x2 = 0.5008 | 784.403
293.15 K, x2 = 0.5997 | 788.444
293.15 K, x2 = 0.65 | 790.668
293.15 K, x2 = 0.6984 | 792.9
293.15 K, x2 = 0.7464 | 795.233
293.15 K, x2 = 0.8488 | 800.592
293.15 K, x2 = 0.898 | 803.384
293.15 K, x2 = 0.9493 | 806.449
298.15 K, x2 = 0.0517 | 765.646
298.15 K, x2 = 0.1047 | 767.168
298.15 K, x2 = 0.1499 | 768.464
298.15 K, x2 = 0.2024 | 770.022
298.15 K, x2 = 0.2519 | 771.537
298.15 K, x2 = 0.2992 | 773.045
298.15 K, x2 = 0.354 | 774.86
298.15 K, x2 = 0.3987 | 776.425
298.15 K, x2 = 0.4511 | 778.326
298.15 K, x2 = 0.5037 | 780.345
298.15 K, x2 = 0.5514 | 782.295
298.15 K, x2 = 0.5983 | 784.258
298.15 K, x2 = 0.6481 | 786.487
298.15 K, x2 = 0.6993 | 788.884
298.15 K, x2 = 0.7489 | 791.361
298.15 K, x2 = 0.8004 | 794.002
298.15 K, x2 = 0.8501 | 796.724
298.15 K, x2 = 0.8974 | 799.453
298.15 K, x2 = 0.9492 | 802.596
303.15 K, x2 = 0.0544 | 761.363
303.15 K, x2 = 0.1019 | 762.717
303.15 K, x2 = 0.1509 | 764.148
303.15 K, x2 = 0.2038 | 765.743
303.15 K, x2 = 0.2505 | 767.184
303.15 K, x2 = 0.3025 | 768.842
303.15 K, x2 = 0.3542 | 770.576
303.15 K, x2 = 0.3972 | 772.093
303.15 K, x2 = 0.4501 | 774.032
303.15 K, x2 = 0.5002 | 775.97
303.15 K, x2 = 0.5493 | 777.978
303.15 K, x2 = 0.6069 | 780.477
303.15 K, x2 = 0.6491 | 782.394
303.15 K, x2 = 0.7005 | 784.812
303.15 K, x2 = 0.7451 | 787.095
303.15 K, x2 = 0.8001 | 789.991
303.15 K, x2 = 0.8482 | 792.622
303.15 K, x2 = 0.899 | 795.603
303.15 K, x2 = 0.9494 | 798.7
